Reference: US20250084169A1

What was measured:
[1] = biological target: cynomolgus monkey Fc gamma receptor CD64 (cynomolgus monkey); assay: BLI (Octet), cynomolgus FcγR on sensor
[2] = biological target: human B cells (viable CD3- CD40+ CD21+ cells in PBMC; carry CD19 and CD20); assay: flow cytometry on PBMC B cells, anti-human Fcγ-PE
[3] = biological target: cynomolgus monkey B cells (in PBMC; carry CD19 and CD20); assay: flow cytometry on PBMC B cells, anti-human Fcγ-PE

Substance	Fold (KD of rituximab / KD) [1]	Emax [2]	Emax [3]
FMC59-S239D/I332E (huFMC63-S239D/I332E) (antibody)	10 fold		
Tafasitamab-cxix (research grade biosimilar) (antibody)	5.7 fold		
human IgG1 isotype control (antibody)		3200 gMFI	2700 gMFI
